Values of other authors as cited in patent US20070248547A1, “CASCADE MACROMOLECULAR CONTRAST AGENTS FOR MEDICAL IMAGING” (THE REGENTS OF THE UNIVERSITY OF CALIFORNIA, priority 2006, published 2007).

Conditions: in vivo, 864 h

Albumin-(Gd-DTPA)
remained in the body: 13%
